This assay has as its target Dual specificity protein kinase CLK4 (Homo sapiens, UniProt Q9HAZ1).

Chains of the proteins cited; added tags and fusions are not shown. Lines headed by an entry give the natural chain unless they say otherwise; changes in a name come on top.
UniProt Q9HAZ1: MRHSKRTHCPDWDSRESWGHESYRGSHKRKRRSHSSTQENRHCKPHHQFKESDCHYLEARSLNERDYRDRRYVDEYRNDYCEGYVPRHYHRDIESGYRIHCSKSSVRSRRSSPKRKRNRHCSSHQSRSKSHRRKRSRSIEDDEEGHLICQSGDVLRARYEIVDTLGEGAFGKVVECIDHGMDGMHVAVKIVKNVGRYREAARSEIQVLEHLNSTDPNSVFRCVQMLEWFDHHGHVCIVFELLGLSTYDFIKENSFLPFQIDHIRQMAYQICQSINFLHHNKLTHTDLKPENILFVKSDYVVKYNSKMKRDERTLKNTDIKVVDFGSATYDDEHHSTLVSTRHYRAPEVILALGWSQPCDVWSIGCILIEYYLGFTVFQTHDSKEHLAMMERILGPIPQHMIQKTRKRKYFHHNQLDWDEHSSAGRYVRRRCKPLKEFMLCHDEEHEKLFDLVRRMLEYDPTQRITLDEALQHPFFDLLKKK

Molecules are shown by their SMILES.

Turning to `NC(=NCCCCCCN=C(N)NC(N)=Nc1ccc(Cl)cc1)N=C(N)Nc1ccc(Cl)cc1` [N',N'''''-hexane-1,6-diylbis[N-(4-chlorophenyl)(imidodicarbonimidic diamide)]], the IC50 was above 10 µM.

The values are drawn from BindingDB's records for PubMed 36876904 (Perha Pharmaceuticals, 2023).
